# Only a part is listed here, and it is no random draw. Active and inactive are the calls of the source. Cut-off read from the data, not from the text of the source: active = activity above about 200%; inactive = the rest.
# Protein sequences, listed by entry. Tags and fused reporters are not part of them.
# UniProt P03372, whole entry: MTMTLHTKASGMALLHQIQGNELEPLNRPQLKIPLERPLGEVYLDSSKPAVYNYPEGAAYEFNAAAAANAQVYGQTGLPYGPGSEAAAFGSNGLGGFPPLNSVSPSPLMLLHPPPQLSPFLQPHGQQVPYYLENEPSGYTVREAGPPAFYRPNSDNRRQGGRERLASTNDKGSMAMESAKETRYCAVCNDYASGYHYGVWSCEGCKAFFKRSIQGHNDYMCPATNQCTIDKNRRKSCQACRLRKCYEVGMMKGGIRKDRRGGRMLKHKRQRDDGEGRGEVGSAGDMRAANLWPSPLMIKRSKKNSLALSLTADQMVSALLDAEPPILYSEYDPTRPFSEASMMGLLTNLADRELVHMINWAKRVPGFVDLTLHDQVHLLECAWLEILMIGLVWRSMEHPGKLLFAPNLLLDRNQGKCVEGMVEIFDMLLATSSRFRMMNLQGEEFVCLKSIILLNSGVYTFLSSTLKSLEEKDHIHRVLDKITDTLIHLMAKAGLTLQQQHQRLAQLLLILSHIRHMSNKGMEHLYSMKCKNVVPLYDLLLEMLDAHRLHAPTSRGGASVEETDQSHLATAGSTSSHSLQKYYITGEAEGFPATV
# Molecular target: Estrogen receptor (Homo sapiens) (UniProt P03372)
# Experiment: enhancers of ERα–SRC-1 coactivator binding, primary screen, biochemical, TR-FRET, ERα LBD, low estradiol (AID 639);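 note: binding measured in presence of low estradiol as agonist stimulus; 0% = peptide alone without receptor and 100% = receptor with peptide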
# Settings: TR-FRET ERalpha-LBD/SRC-Cy5 coactivator binding, 2 h; at 25.6 µM; active compounds read high; 100 = basal binding, no effect
row,Compound,coactivator binding (% of control)
1,CN(C)CCOC(=O)C(O)(c1ccccc1)C1CCCCC1 (configuration not stated),inactive: 127%
2,CCOP(C)(=S)SCC(=O)NC(C)(CC)C(=O)O (configuration not stated),inactive: 118%
3,CP(=O)(Nc1ccc2c(c1)OCCO2)Oc1ccccc1 (configuration not stated),inactive: 112%
4,Cc1ccccc1NP(C)(=O)Nc1ccccc1C,inactive: 150%
5,CP(=O)(Nc1ccccc1F)Oc1ccccc1 (configuration not stated),inactive: 95.2%
6,CCN(CC)CCCOC(=O)C(O)(c1ccccc1)C1CCCCC1 (configuration not stated),inactive: 120%
7,CP(=O)(Nc1ccccc1)Oc1ccc(F)cc1 (configuration not stated),inactive: 101%
8,COc1ccccc1OP(C)(=O)Nc1ccc(C)c(C)c1 (configuration not stated),inactive: 105%
9,Cc1nc2ccc3ccccc3c2o1.O=[N+]([O-])c1cc([N+](=O)[O-])c(O)c([N+](=O)[O-])c1,inactive: 107%
10,CN(C)CCOC(=O)C(O)(c1ccccc1)C1CCCC1 (configuration not stated),inactive: 99.3%
11,COc1ccc(OP(C)(=O)Nc2ccccn2)cc1 (configuration not stated),inactive: 112%
12,Cc1c(NP(C)(=O)Oc2ccc(C(C)C)cc2)c(=O)n(-c2ccccc2)n1C (configuration not stated),inactive: 98.6%
13,CCc1ccc(OP(C)(=O)O)cc1,inactive: 104%
14,CP(=O)(Nc1ccccn1)Oc1ccccc1 (configuration not stated),inactive: 95.5%
15,COc1ccccc1OP(C)(=O)Nc1ccc(C)cc1C (configuration not stated),inactive: 109%
16,CP(=O)(Oc1ccccc1)N1CCOC1=O (configuration not stated),inactive: 96.6%

row,Compound,coactivator binding (% of control)
1,COc1ccccc1OP(C)(=O)Nc1c(C)n(C)n(-c2ccccc2)c1=O (configuration not stated),inactive: 112%
2,CP(=O)(Nc1ccc(Cl)cc1)Oc1ccc(F)cc1 (configuration not stated),inactive: 73.4%
3,CC(C)(C)c1ccc(OP(C)(=O)O)cc1,inactive: 99%
4,CP(=O)(OC12CC3CC(CC(C3)C1)C2)OC12CC3CC(CC(C3)C1)C2,inactive: 103%
5,CP(=S)(Nn1cnnc1)Oc1ccccc1 (configuration not stated),inactive: 89.2%
6,CP(=O)(NC(=O)Nc1ccccc1)Oc1ccccc1 (configuration not stated),inactive: 122%
7,CCOP(C)(=S)SCC(=O)NC(C)C(=O)O (configuration not stated),inactive: 106%
8,CP(=O)(Nc1ccccn1)Oc1ccc(Cl)cc1 (configuration not stated),inactive: 100%
9,COc1ccccc1OP(C)(=O)Nc1ccc(C)cc1 (configuration not stated),inactive: 125%
10,Cc1ccc(NP(C)(=O)Oc2ccccc2)c(C)c1 (configuration not stated),inactive: 95.2%
11,COc1ccc(OP(C)(=O)Nc2cccc(F)c2)cc1 (configuration not stated),inactive: 104%
12,Cc1cc(C)cc(OP(C)(=O)Nc2ccc(C)cc2C)c1 (configuration not stated),inactive: 95%
13,Cc1cc(C)cc(OP(C)(=O)Nc2ccccn2)c1 (configuration not stated),inactive: 106%
14,Cc1ccc(C)c(NP(C)(=O)Oc2ccccc2)c1 (configuration not stated),inactive: 94.8%
15,Cc1nc2ccc3ccccc3c2s1.O=[N+]([O-])c1cc([N+](=O)[O-])c(O)c([N+](=O)[O-])c1,inactive: 97.5%
16,COc1ccccc1OP(C)(=O)Nc1c(C)cccc1C (configuration not stated),inactive: 110%

# — PubChem BioAssay AID639 (Emory University Molecular Libraries Screening Center, 2007)
